The conditions of this data set: 298.15 K; 101.33 kPa; Liquid.

Each structure is given as a SMILES string. ± gives the expanded uncertainty stated by the source.

As a reminder, the mass density is the mass of a sample divided by its volume. For the compound `OCCOCCOCCOCCO` [tetraethylene glycol], the mass density is listed as 1120.09 ± 0.59 kg/m3.

The values above are taken from the NIST ThermoML archive (doi:10.1021/je049943s).
